The target in the assay is Delta-type opioid receptor (Mus musculus, UniProt P32300). Description: Antagonist activity against delta opioid receptor in mouse vas deference assessed as effect on DPDPE-induced response. The assay is classed as functional. The essentials: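 Isolated tissue bioassays: mu and kappa antagonism measured in guinea pig ileum, delta antagonism in mouse vas deferens. Antagonist potency expressed as Ke (nM).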

Amino acid sequences for entries named in this document (tags omitted).
UniProt P32300, whole entry: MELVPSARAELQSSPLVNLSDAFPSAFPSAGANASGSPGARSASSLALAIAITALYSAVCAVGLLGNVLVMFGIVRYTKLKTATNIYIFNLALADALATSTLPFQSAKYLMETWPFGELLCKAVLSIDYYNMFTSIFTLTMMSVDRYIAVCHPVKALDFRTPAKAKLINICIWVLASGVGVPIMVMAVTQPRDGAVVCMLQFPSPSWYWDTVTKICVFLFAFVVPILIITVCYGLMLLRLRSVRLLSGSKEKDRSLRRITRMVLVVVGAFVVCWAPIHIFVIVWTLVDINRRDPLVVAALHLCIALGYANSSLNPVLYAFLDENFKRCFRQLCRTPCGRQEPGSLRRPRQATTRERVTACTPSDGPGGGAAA

We go through one molecule from ChEMBL document CHEMBL1140138, “Novel opioid peptide derived antagonists containing (2S)-2-methyl-3-(2,6-dimethyl-4-carbamoylphenyl)propanoic acid [(2S)-Mdcp]” (J Med Chem, 2008).

By IC50 is commonly meant the concentration at which inhibition is half-maximal.

For `C[C@@H](O)[C@H](NC(=O)[C@H]1NC(=O)[C@H]([C@@H](C)O)NC(=O)[C@H](CCCN)NC(=O)[C@@H](Cc2c[nH]c3ccccc23)NC(=O)[C@H](Cc2ccc(O)cc2)NC(=O)[C@@H](NC(=O)[C@H](N)Cc2ccccc2)CSSC1(C)C)C(N)=O`, the 50% inhibitory concentration (IC50) was 13.5 µM.
